Columns and labels:
[1] = tested on: rat model with bladder pain; assay: Rat model with bladder pain (cyclophosphamide pre-treated, bladder expansion); format: in vivo; conditions: male SD rats, 3 mg/5 ml/kg oral, change before vs after administration
Protocol: Action of Compound with Respect to Rat Model with Bladder Pain
The analgesic action of the compound against bladder pain was examined using a pathological model. Cyclophosphamide (150 mg/kg) was administered intraperitoneally, and after two days, physiological saline was injected under a non-restraint condition, at a rate of 45 ml/h via a cannula inserted transurethrally into the bladder, thereby rapidly expanding the bladder. Due to rapid expansion of the bladder, amplification of electromyogram spikes in external oblique abdominal muscle accompanying behavior relating to pain was confirmed. The injection amount at this point in time can be taken as a threshold of bladder pain, which makes it possible to evaluate drug efficacy with respect to the threshold of bladder pain. […] For the rats pre-treated with cyclophosphamide, the threshold of bladder pain before and after the administration of a test compound was measured, and the change in amount (Δ ml) was investigated. In order to obtain a value before administration, bladder expansion was performed until a stabilized threshold of bladder pain was consecutively obtained three times, and the average of the threshold of bladder pain of the final three times was taken as a measured value. […] The average of the threshold of bladder pain consecutively measured three times was taken as a value measured after administration.

Sequences of proteins named here, by UniProt entry; tags and fusion partners are left off.
UniProt O00519, whole entry, looked up: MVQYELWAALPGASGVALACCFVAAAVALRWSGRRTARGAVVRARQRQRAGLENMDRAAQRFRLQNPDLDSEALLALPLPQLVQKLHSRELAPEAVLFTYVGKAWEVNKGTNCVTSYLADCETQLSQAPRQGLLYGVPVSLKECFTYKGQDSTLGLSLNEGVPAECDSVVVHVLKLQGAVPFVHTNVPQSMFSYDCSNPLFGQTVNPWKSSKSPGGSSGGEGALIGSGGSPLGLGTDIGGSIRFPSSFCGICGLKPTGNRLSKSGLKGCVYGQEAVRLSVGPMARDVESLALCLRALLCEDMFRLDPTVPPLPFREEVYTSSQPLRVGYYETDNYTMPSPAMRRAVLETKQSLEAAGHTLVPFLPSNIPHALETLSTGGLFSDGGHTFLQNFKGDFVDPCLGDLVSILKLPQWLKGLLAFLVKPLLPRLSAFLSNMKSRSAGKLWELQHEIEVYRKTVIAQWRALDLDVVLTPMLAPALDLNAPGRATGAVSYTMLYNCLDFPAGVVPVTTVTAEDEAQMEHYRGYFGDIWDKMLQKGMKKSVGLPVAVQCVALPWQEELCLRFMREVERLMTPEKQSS

[2] = tested on: rat with cyclophosphamide (CPA)-induced urinary frequency; assay: Rat with cyclophosphamide (CPA)-induced urinary frequency, effective bladder capacity; conditions: female Wistar rats, two days after CPA 100 mg/kg i.p., urine measured for 1 hour
[3] = tested on: rat model with testis pain; assay: Rat model with testis pain (acetic acid into testes, writhing); format: in vivo; conditions: male Wistar rats, 3 mg/5 ml/kg oral, counted 5 to 15 minutes after acetic acid
Protocol: Action of Compound with Respect to Rat Model with Testis Pain
The analgesic action of the compound against testis pain was examined using a pathological model. If 1% acetic acid is administered at 1 ml/kg to right and left testes of a rat by using an injection needle, pain behavior (writhing) accompanied by testis pain is observed, which makes it possible to evaluate drug efficacy on the pain behavior. […] The rats were transferred to a cylindrical acryl cage having a diameter of 30 cm and a height of 50 cm, and the number of times of pain behavior shown for 5 minutes to 15 minutes after the acetic acid administration was measured.

FAAH = FAAH (Homo sapiens, UniProt O00519); assay: Measurement of IC50 value of substance inhibiting FAAH activity using human bladder epithelial carcinoma-derived cell line 5637; format: cell-based; conditions: 5637 cells, radiolabeled anandamide substrate, 30 minutes at 37° C.; URB597 10 μM = 0%, DMSO = 100%
Protocol: Screening of Substance Inhibiting FAAH Activity by Using Human Bladder Epithelial Carcinoma-Derived Cell Line
(1) Screening of Substance Inhibiting FAAH Activity
Human bladder epithelial carcinoma-derived cell line, 5637 cells (HTB-9; ATCC) were seeded in a 48-well cell culture plate in an amount of 1×10^5 cells/well by using RPMI 1640 medium (Invitrogen) containing 10% fetal bovine serum (HyClone), followed by incubation at 37° C. for 12 hours or longer, and then the cells in each well were washed with 400 μl of a buffer (Hank's Balanced Salt Solution, 20 mM Hepes-NaOH (pH 7.4)). A test substance dissolved in DMSO was added to a substrate solution (the above buffer containing 3 μCi/ml radiolabeled anandamide (anandamide [ethanolamine 1-^3H]) and 10 μM anandamide) so as to have a concentration from 0.003 nM to 30 nM, and as a control, DMSO was added alone. 100 μl/well of the substrate solution was added to the cells, followed by incubation in a CO2 incubator at 37° C. for 30 minutes. Thereafter, the cell culture plate was transferred onto ice, the substrate solution was removed by suction, and 75 μl/well of a cytolytic solution that have been ice-cooled (the above buffer containing 0.5% TritonX-100 and 10 μM of a compound cyclohexylcarbamic acid 3′-carbamoylbiphenyl-3-yl ester (URB597; Cayman Chemical Company; Kathuria et al., Nature Med., Vol. 9, pp 76-81, 2003) having FAAH inhibitory activity) was added thereto, followed by stirring. The obtained cell lysate was transferred from each well to a sample tube having a volume of 1.5 ml, and 150 μl of a solution including chloroform and methanol at a ratio of 1:1 (volume ratio) was added thereto, followed by stirring. By centrifugation (15000 rpm for 2 minutes), the solution was divided into the upper layer (water/methanol layer) containing the decomposed product ethanolamine (ethanolamine 1-^3H) and the lower layer (chloroform layer) containing unreacted radiolabeled anandamide. […] A substance decreasing a measured value compared to the control was selected as a substance inhibiting FAAH activity. […]

Question: For `Cc1ccc(OC(=O)N2CCC(n3ccc(-c4ccccc4)n3)CC2)cn1`, which “Threshold of bladder pain (amount of physiological saline injected), compound-administered group” value ([1]; 120 minutes before measurement) is on record?
Answer: The value was 0.138 Δ ml.

Question: What about the “effective oral administration dose (increased the reduced effective bladder capacity and improved the urinary frequency)” value [2] of the same compound?
Answer: The value was 1 mg/kg.

Question: What about the “Number of times of pain behavior, compound-administered group” value ([3]; 120 minutes before measurement) of the same compound?
Answer: The value was 13.3.

Question: For `O=C(O)c1cncc(OC(=O)N2CCC(CCc3ccccc3)CC2)c1`, which “Threshold of bladder pain (amount of physiological saline injected), compound-administered group” value ([1]; 60 minutes before measurement) is on record?
Answer: Its value is 0.145 Δ ml.

Question: What about the “effective oral administration dose (increased the reduced effective bladder capacity and improved the urinary frequency)” value [2] of the same compound?
Answer: Its value is 1 mg/kg.

Question: And the “Number of times of pain behavior, compound-administered group” value ([3]; 60 minutes before measurement)?
Answer: Its value is 10.4.

Question: With `NC(=O)c1cccc(CCC2CCN(C(=O)Oc3cncc(C(N)=O)c3)CC2)c1` as the compound, how does the “effective oral administration dose (increased the reduced effective bladder capacity and improved the urinary frequency)” value [2] read?
Answer: Its value is 1 mg/kg.

Question: With `COC(=O)c1cncc(OC(=O)N2CCN(CCc3ccccc3)CC2)c1` as the compound, how does the IC50 (FAAH) read?
Answer: Its IC50 is 1.4 nM.

Question: With `NC(=O)c1cncc(OC(=O)N2CCN(CCCCCc3ccccc3)CC2)c1` as the compound, how does the IC50 (FAAH) read?
Answer: The IC50 was 0.083 nM.

Question: How did the “effective oral administration dose (increased the reduced effective bladder capacity and improved the urinary frequency)” value [2] turn out when `O=C(O)c1cncc(OC(=O)N2CCC(/C=C/c3ccccc3)CC2)c1` was run?
Answer: Its value is 1 mg/kg.

Question: What about the IC50 (FAAH) of the same compound?
Answer: The IC50 was 1.5 nM.
